Laboratory results: publication PMC7617104 (Biochemical Journal, 2024)
Several values for one entry are separate records, joined by “and”; a condition that tells them apart may be missing. Equal values may be shown once.

The chains behind the UniProt entries cited, without tags or fusion partners. Where a name states a change or a piece, a line headed by the entry shows the natural chain unless it says otherwise.
UniProt P42336, whole entry: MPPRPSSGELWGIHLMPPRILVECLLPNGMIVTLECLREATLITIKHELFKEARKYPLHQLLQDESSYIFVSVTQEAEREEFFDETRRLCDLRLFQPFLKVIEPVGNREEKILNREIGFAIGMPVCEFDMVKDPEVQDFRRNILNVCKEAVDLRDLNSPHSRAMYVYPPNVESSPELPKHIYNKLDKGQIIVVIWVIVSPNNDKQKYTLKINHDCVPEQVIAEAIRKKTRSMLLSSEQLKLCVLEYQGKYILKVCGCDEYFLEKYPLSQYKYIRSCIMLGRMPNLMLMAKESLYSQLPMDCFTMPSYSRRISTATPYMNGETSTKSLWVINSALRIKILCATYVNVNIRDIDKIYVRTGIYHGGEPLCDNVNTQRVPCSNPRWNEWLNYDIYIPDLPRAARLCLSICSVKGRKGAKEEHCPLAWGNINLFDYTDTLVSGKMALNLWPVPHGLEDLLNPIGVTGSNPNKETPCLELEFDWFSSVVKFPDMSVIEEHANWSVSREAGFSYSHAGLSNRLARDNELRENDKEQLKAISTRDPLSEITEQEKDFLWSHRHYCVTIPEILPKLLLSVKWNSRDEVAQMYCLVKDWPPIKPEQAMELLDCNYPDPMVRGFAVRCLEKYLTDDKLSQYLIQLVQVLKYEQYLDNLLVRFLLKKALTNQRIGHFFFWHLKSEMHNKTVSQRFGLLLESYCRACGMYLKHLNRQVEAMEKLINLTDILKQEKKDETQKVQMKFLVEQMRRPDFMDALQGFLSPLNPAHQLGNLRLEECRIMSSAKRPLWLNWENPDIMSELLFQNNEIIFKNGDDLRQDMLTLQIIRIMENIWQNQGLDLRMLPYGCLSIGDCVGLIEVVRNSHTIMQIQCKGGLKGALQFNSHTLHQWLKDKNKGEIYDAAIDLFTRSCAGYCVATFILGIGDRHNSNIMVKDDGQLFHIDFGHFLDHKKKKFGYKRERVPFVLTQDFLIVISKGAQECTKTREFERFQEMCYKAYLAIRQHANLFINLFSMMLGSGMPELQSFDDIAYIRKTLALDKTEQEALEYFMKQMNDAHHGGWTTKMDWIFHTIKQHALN
UniProt O00329, whole entry, species assumed: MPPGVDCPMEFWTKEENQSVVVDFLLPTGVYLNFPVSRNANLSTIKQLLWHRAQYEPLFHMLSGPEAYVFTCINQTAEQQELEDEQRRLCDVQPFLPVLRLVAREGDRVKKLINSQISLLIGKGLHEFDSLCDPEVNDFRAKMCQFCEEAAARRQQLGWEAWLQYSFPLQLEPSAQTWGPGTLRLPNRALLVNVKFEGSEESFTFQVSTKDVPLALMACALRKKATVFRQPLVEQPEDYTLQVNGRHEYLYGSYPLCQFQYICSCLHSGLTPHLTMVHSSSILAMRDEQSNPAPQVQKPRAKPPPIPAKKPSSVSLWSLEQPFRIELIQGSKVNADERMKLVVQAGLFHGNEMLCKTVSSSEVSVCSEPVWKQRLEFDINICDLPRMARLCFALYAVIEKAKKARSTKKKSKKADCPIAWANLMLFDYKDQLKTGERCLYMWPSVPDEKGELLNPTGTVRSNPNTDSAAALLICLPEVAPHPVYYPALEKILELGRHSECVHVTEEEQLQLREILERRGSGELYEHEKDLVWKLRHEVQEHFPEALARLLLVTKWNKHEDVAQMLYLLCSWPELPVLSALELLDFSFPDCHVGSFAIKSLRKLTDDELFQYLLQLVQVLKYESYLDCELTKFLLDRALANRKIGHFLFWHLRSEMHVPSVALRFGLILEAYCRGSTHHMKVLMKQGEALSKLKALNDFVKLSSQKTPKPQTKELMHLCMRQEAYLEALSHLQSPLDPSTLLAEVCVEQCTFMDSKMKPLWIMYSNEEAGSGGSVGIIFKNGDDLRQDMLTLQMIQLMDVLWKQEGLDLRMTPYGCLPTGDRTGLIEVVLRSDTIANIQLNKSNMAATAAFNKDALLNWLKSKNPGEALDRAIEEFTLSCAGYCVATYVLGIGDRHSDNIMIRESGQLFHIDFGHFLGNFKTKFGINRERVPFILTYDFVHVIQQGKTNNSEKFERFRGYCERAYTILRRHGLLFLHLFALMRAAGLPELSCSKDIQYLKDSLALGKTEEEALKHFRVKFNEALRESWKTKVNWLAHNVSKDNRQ

How the values were obtained:
[1] = biological target: T1, PI3Kα^WT (p110α/p85α) (Homo sapiens, UniProt P42336); assay: PI3K homogenous time-resolved fluorescence (HTRF) lipid kinase IC50 determination; type: biochemical; conditions: Table S1, this study; a = N=2 individual data shown, b = N=1
T1 construct: made in house; host or cells: Sf9 insect cells (baculovirus)
Experimental: (§1) IC50 values were determined using the PI3K homogenous time-resolved fluorescence assay (Merck Millipore, #33-016) following the manufacturer's instructions as previously described. […] Data was graphed and analysed with Graphpad Prism 6, nonlinear regression with log(inhibitor) vs. response and constraints set at 0% and 100%.
(§2) (1 picture or pasted object on this page, not shown here)
(§3) Enzymes were used at PI3KαWT 40 ng/ml, PI3KβWT as either 400 ng/ml or 300 ng/ml,
(§4) and PI3K δWT was 65 ng/ml. Plates were read on a PHERAStar HTS microplate reader

[2] = biological target: T2, PI3Kδ^WT (p110δ/p85α) (Homo sapiens, UniProt O00329); assay: PI3K HTRF lipid kinase IC50 determination; type: biochemical; conditions: Table S1, this study; a = N=2 individual data shown
T2 construct: made in house; host or cells: Sf9 insect cells (baculovirus)
Experimental: as §1, §2, §3, §4

Cc1nc(-c2cn3c(n2)-c2ccc(-c4cnn(C(C)(C)C(N)=O)c4)cc2OCC3)n(C(C)C)n1 [GDC0032]
IC50 [1]: 0.7 nM and 1.3 nM
IC50 [2]: 0.7 nM and 1.1 nM
